Legend:
rat Y2b receptor = target: T1, rat Y2b receptor (Rattus norvegicus, UniProt Q9ERC0, L20F/T266M); test: Specific binding of 125I-PYY, COS-7 membranes expressing rat Y2b; conditions: 0.08 nM 125I-PYY, 30° C., 120 min
T1 construct: rs26a also encoded a full-length rat Y2 receptor; expressed in transfected cells; host or cells: COS-7 (transient); 3.9 kb SalI/KpnI genomic fragment of rs26a in EXJ.HR
From the text: The rat Y2b clone, which differs from rat Y2a by two amino acid changes one in the N-terminal tail (from Leu^20 to Phe^20) and another in the third intracellular loop (from Thr^266 to Met^266), has been subjected only to a preliminary investigation. […] It remains to be determined whether there exist any pharmacological or functional differences between the rat Y2a and rat Y2b receptors.

Protein sequences, listed by entry. Tags and fused reporters are not part of them. Residues count along the entry.
UniProt Q9ERC0, 1-381 L20F/T266M: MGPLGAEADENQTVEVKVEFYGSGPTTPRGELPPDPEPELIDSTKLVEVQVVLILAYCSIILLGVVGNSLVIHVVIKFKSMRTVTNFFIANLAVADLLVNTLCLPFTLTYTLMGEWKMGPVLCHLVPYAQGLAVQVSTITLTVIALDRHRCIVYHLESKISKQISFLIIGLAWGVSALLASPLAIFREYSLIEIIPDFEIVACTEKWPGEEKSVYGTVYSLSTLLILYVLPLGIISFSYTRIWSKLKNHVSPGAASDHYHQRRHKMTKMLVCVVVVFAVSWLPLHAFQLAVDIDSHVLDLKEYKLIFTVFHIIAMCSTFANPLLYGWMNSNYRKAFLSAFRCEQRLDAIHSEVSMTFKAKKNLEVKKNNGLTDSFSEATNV
UniProt P49146, whole entry: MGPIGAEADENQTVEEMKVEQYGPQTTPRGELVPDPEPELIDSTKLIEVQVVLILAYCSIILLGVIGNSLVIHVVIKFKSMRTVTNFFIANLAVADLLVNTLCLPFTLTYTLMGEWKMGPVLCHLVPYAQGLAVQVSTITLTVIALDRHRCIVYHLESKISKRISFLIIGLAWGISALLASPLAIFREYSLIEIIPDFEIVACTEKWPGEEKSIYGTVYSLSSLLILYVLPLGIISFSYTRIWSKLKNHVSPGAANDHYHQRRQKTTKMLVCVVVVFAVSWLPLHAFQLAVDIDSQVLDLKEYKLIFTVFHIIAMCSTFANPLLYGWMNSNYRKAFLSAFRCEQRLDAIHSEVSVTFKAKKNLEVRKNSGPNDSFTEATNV
UniProt P25929, whole entry: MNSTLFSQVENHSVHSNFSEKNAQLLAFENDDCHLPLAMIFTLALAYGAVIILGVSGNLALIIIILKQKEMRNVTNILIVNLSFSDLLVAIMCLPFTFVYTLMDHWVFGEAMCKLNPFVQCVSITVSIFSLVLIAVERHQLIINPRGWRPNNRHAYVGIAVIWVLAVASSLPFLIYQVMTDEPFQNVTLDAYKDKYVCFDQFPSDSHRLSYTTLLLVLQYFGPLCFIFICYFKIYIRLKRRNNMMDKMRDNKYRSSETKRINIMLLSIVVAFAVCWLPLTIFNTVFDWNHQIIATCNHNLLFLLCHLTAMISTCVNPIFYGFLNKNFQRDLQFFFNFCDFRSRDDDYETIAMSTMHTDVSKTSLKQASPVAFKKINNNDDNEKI

[1] = target: T2, CG-13 receptors (human Y2 receptor) (Homo sapiens, UniProt P49146); test: Association time course and saturation binding of 125I-PYY, COS-7 membranes expressing CG-13; conditions: 0.06 nM 125I-PYY
T2 construct: expressed in transfected cells; host or cells: COS-7 (transient, DEAE-dextran)

human Y1 receptors = target: T3, human Y1 receptors (Homo sapiens, UniProt P25929); test: Association time course and saturation binding of 125I-PYY, COS-7 membranes expressing human Y1
T3 construct: expressed in transfected cells; host or cells: COS-7 (transient, DEAE-dextran)

Question: How did the 125I-PYY bound (rat Y2b receptor) turn out when ^125I-PYY was run?
Answer: The 125I-PYY bound was 310 fmol/mg membrane protein.

Question: What about the “Kobs, slow phase” value [1] of the same substance?
Answer: The value was 0.02 ± 0.00 min⁻¹.

Question: What about the “observed association constant (Kobs), rapid phase” value [1] of the same substance?
Answer: The value was 1.28 ± 0.02 min⁻¹.

Question: And the “Kobs (monophasic)” value (human Y1 receptors)?
Answer: The value was 0.06 ± 0.02 min⁻¹.
